These results are taken from patent US20230310542A1, “EPIGENETIC MODIFIERS TO TREAT RETINAL DEGENERATIONS” (priority 2022, published 2023).

The nature of this series: Animal weight gain, mortality and activity during inhibitor treatment. The method, then: All inhibitors were diluted in 0.9% bacteriostatic sodium chloride (saline).
During all treatments animal weight gain was monitored.

For the molecule `C/C=C1\NC(=O)[C@H]2CSSCC/C=C/[C@H](CC(=O)N[C@H](C(C)C)C(=O)N2)OC(=O)[C@H](C(C)C)NC1=O` [romidepsin], the “activity of treated animals” value (mouse, in vivo) is given as “less active”. Besides, the mortality result (romidepsin lower concentrations than 2 mg/kg, rd10 mice) was “increased mortality”.
